Sampled rows, rich in hits. Any-hit rate of the full collection: about 2.3%.
MC4R ag barr: activates human MC4R beta-arrestin recruitment. U2OS MC4R beta-arrestin complementation, luminescence; percent of melanotan II response, DMSO zero. AID 540308. P32245. 360,000 tested, 0.98% active. activation, % at 8.9 µM;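 active = activation above a per-plate cutoff, the mean activation of sample wells on that plate plus 3 SD, cut at about 8% in these data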
Yeast UUG start: modulators of start codon recognition fidelity in yeast; S. cerevisiae UUG-firefly luciferase reporter, luminescence/redox ratio; activity score, % at 18.7 µM; hit rate 0.13% among 350,000; AID 602363;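 active = replicate mean at a twofold rise or more, about +100% in these data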;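 note: firefly luciferase made from a UUG start codon reports start codon fidelity; reporter light over untreated wells divided by growth signal over untreated wells; some hits fall short of that in this replicate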
ARFGAP1 inh: rat ARFGAP1 inhibition | 360,000 tested, 0.26% active | Arfgap1-stimulated ARF1 GTP hydrolysis, GDP FP detection | Q62848 | AID 651572 | inhibition, % at 16.5 µM;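 active = inhibition above a per-plate limit, mean inhibition of low control wells plus 3 SD, cut at about 25% in these data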;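 also: 0% = DMSO wells with enzyme and 100% = wells lacking Arfgap1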
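Material: rat Arfgap1 catalytic domain, aa 1-136; also added: human ARF1(Δ1-17)-GTP substrate; compound dosing: one concentration, 16.5 µM, DMSO 1.26%; incubation: GTP hydrolysis reaction 2 h at 25 °C; measured by: Tracer-displacement fluorescence polarization with EDTA stop, 620/688 nm; evaluation: % inhibition from polarization; repeats: one replicate per compound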
MC4R antag cAMP: human MC4R antagonism in cAMP assay; MC4R-expressing cells, MTII-stimulated cAMP, LANCE TR-FRET; 360,000 tested, 0.48% active; inhibition, % at 6.5 µM; AID 540295; P32245;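 active = inhibition above its plate's cutoff, the mean of tested wells on that plate plus 3 SD, cut at about 29% in these data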;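 also: 0% = Melanotan II alone and 100% = Melanotan II plus saturating MCL0020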
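System: U2OS-MC4R stable cell line; Technique: Eu-cAMP/anti-cAMP TR-FRET, emission 671 nm; Repeats: single well per compound; Also added: Melanotan II; Dosing: one concentration, 6.5 µM nominal; Schedule: 30-min compound, 1-h challenge, 1-h detection, room temperature.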
CendR NRP1 mod: modulators of CendR peptide binding to human neuropilin-1; O14786; 360,000 tested, 0.85% active; FAM-RPARPAR peptide binding to NRP-1, fluorescence polarization; inhibition, % at 25 µM;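 active = inhibition or corrected inhibition above about 18%, plus a signal ratio from 0.5 to 1.5, limit read from the data, passing the limit was not always enough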
ASAP1 inh: ASAP1 ArfGAP inhibition. ASAP1-stimulated ARF1 GTP hydrolysis, GDP FP detection. inhibition, % at 16.5 µM. Q9ULH1. 360,000 tested, 0.19% active; in the data active = inhibition above about 25%;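 also: 0% = vehicle with enzyme and substrate and 100% = no enzyme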
MC4R barr ag: human MC4R beta-arrestin agonism confirmation; shares compounds with MC4R ag barr; U2OS MC4R beta-arrestin recruitment, luminescence; scaled DMSO 0%, Melanotan II 100%; activation, % at 8.9 µM; 2,400 tested, 31% active;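 active = mean activation across replicates above the hit cutoff set in the earlier primary screen, cut at about 8% in these data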
MOR-DOR barr ag: counter-screen for MC4R agonists: agonists of mu-delta opioid heterodimer. shares compounds with MC4R ag barr. U2OS PathHunter beta-arrestin, beta-gal luminescence; percent of deltorphin B response, DMSO zero. activation, % at 9.2 µM. 2,400 tested, 5.8% active. AID 602194;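 active = mean activation across replicates exceeds the hit threshold derived in the earlier primary screen, cut at about 18% in these data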;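 also: 100% = deltorphin B at 0.9 µM final and 0% = DMSO alone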
Active calls of the source: *; nt = no result given.

nr	SMILES	Yeast UUG start	ARFGAP1 inh	CendR NRP1 mod	MC4R ag barr	MC4R barr ag	ASAP1 inh	MC4R antag cAMP	MOR-DOR barr ag
1	CCCn1c(=S)[nH]c2cc(C(=O)N3CCN(c4ccccc4)CC3)ccc2c1=O	nt	8	-6	-2	nt	-14	0	nt
2	C=CCc1cccc(/C=N/NC(=O)CNc2ccccc2)c1O	-6	-1	1	4	nt	4	4	nt
3	C=CCc1cccc(/C=N/NC(=O)CCCNc2ccc(C)cc2)c1O	nt	-3	-8	16*	0	2	-1	3
4	Nc1nc(CCl)nc(N(c2ccccc2)c2ccccc2)n1	-15	-4	1	18*	13*	-4	14	31*
5	C[C@@H](NC(=O)C[C@H]1CC[C@@H](NC(=O)C2CCC2)[C@H](CO)O1)c1ccccc1	-9	nt	nt	nt	nt	nt	nt	nt
6	Cc1cc(C)c2nc(Nc3nc(-c4ccccc4)cc(=O)[nH]3)nc(C)c2c1	nt	-7	-23	27*	17*	3	-7	3
7	Cc1cc(-c2ccccc2)nc(Nc2nc3c(C)cccc3c(=O)[nH]2)n1	nt	3	1	19*	6	-6	-10	3
8	Cc1cc(C)c2nc(Nc3nc(CSc4nc5ccccc5[nH]4)cc(=O)[nH]3)nc(C)c2c1	nt	1	11	1	nt	11	-4	nt
9	N#Cc1c2ccc(OCC(=O)NCc3ccco3)cc2n2ccccc12	3	9	-10	14*	3	0	12	5
10	O=C(CN1CCOCC1)Nc1ccc(Oc2ccccc2)cc1	4	3	3	-3	nt	-18	1	nt
11	O=C(CN1CCN(c2ccccc2)CC1)Nc1ccc(Oc2ccccc2)cc1	15	13	10	19*	6	0	4	5
12	C[C@@H]1CCCCO[C@@H](CN(C)C)[C@H](C)CN([C@H](C)CO)C(=O)c2cc(NS(=O)(=O)c3ccc(Cl)cc3)ccc2O1	22	nt	nt	nt	nt	nt	nt	nt

Ordered by formula weight (ascending): some entries from above.
nr	SMILES	Yeast UUG start	ARFGAP1 inh	CendR NRP1 mod	MC4R ag barr	MC4R barr ag	ASAP1 inh	MC4R antag cAMP	MOR-DOR barr ag
7	Cc1cc(-c2ccccc2)nc(Nc2nc3c(C)cccc3c(=O)[nH]2)n1	nt	3	1	19*	6	-6	-10	3
3	C=CCc1cccc(/C=N/NC(=O)CCCNc2ccc(C)cc2)c1O	nt	-3	-8	16*	0	2	-1	3
1	CCCn1c(=S)[nH]c2cc(C(=O)N3CCN(c4ccccc4)CC3)ccc2c1=O	nt	8	-6	-2	nt	-14	0	nt

Continuation.
nr	SMILES	Yeast UUG start	ARFGAP1 inh	CendR NRP1 mod	MC4R ag barr	MC4R barr ag	ASAP1 inh	MC4R antag cAMP	MOR-DOR barr ag
13	CO[C@@H]1CN(C)C(=O)c2ccc(NC(=O)C3CCOCC3)cc2OC[C@@H](C)N(CC2CCCCC2)C[C@H]1C	-13	nt	nt	nt	nt	nt	nt	nt
14	O=c1[nH]c(/C=C/c2cccc3ccccc23)nc2ccccc12	nt	3	-18	16*	2	11	1	2
15	C=CCn1c(SCC(=O)Nc2ccc(OC)cc2)nc2ccccc2c1=O	-22	3	12	15*	-2	1	2	1
16	COc1ccc(NC(=O)CSc2nc3ccccc3c(=O)n2CCNC(C)=O)cc1	-6	15	-7	3	nt	2	3	nt
17	COCCn1c(SCC(=O)Nc2ccc(NC(=O)c3ccco3)c(OC)c2)nc2ccccc2c1=O	-10	-4	-4	27*	8	-4	-4	16
18	CCn1c(SCC(=O)Nc2ccc(NC(=O)c3ccco3)c(OC)c2)nc2ccccc2c1=O	-5	-8	-7	18*	5	3	15	2
19	CCn1c(SCC(=O)Nc2ccccc2OC)nc2ccccc2c1=O	nt	-6	-9	-1	nt	-5	-22	nt
20	CCOC(=O)c1ccc(NC(=O)Nc2cc(C)on2)cc1	-27	-5	-4	11*	4	2	1	7
21	CCOC(=O)c1ccc(NC(=O)Nc2cccc(C)n2)cc1	-1	-5	-4	2	nt	-2	16	nt
22	Cc1ccc(S(=O)(=O)NCC[C@H]2CC[C@@H](NC(=O)c3cnccn3)[C@@H](CO)O2)cc1	25	nt	nt	nt	nt	nt	nt	nt
23	O=[N+]([O-])c1ccc2c(c1)C(=Nc1ccccc1)c1ccccc1-2	-10	-2	-8	11*	2	0	-5	4
24	CCC(=O)Nc1ccc2c(c1)C(=O)N(C)[C@H]1CC[C@H](CC(=O)NCc3ccc(OC)cc3)O[C@@H]1CO2	-2	nt	nt	nt	nt	nt	nt	nt
25	Cc1ccc(N2C(=O)CS/C2=N\C(=S)Nc2ccccc2)cc1	-14	2	-1	27*	2	-2	5	9

Gathered by group, the compounds so far with a Cl atom (two)
nr	SMILES	Yeast UUG start	ARFGAP1 inh	CendR NRP1 mod	MC4R ag barr	MC4R barr ag	ASAP1 inh	MC4R antag cAMP	MOR-DOR barr ag
4	Nc1nc(CCl)nc(N(c2ccccc2)c2ccccc2)n1	-15	-4	1	18*	13*	-4	14	31*
12	C[C@@H]1CCCCO[C@@H](CN(C)C)[C@H](C)CN([C@H](C)CO)C(=O)c2cc(NS(=O)(=O)c3ccc(Cl)cc3)ccc2O1	22	nt	nt	nt	nt	nt	nt	nt

Bioassay records (PubChem BioAssay)
